Data taken from PubChem BioAssay AID463 (The Scripps Research Institute Molecular Screening Center, 2006).
This is a selection; strong and weak results do not stand in their true shares. Activity calls are given as the source filed them.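 How the source made its calls: active means inhibition above the mean inhibition of all tested compounds plus 3 SD (cut at about 28% in these data); inactive means the rest.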

Assay: Jurkat cell viability reduction – Jurkat E6.1, 60K MLSMR library, cytotoxicity control, primary screen (AID 463)
Details: Jurkat E6.1 viability, ATP luminescence, 48 h; at 4 µM; hits give high values

SMILES | inhibition
Cc1c2non([O-])c-2c(C)[n+](=O)[n+]1[O-] | inactive: 7.9%
CCc1nc2c(n1)c1c(non1O)c1c2no[n+]1[O-] | active: 66.8%
O=C(OC1CN2CCC1CC2)c1cccc(Cl)c1 (configuration not stated) | inactive: 7.8%
c1nnnn1CCn1cnnn1 | inactive: -5.9%
O=P(Nc1nccs1)(c1ccccc1)c1ccccc1 | inactive: 7.1%
O=P1(Nc2nc3ccc(Cl)cc3s2)COc2ccccc2O1 (configuration not stated) | inactive: -1.9%
CCOP1(=S)c2c(C)nn(CCC#N)c2N=C(c2ccccc2F)N1C (configuration not stated) | inactive: -2.5%
O=P(Nc1nccs1)(c1ccccc1)c1nc2ccccc2s1 (configuration not stated) | inactive: 1.8%
CCOP1(=S)c2c(C)nn(CCC#N)c2N=C(c2ccc(F)cc2)N1C (configuration not stated) | inactive: -0.7%
Clc1n[nH]nc1-c1nn[nH][15n]1 | inactive: -5.7%
O=P1(Nc2ccccn2)COc2ccccc2OC1 | inactive: -9.8%
Cc1nn(-c2ccccc2)c2c1P(=O)(N1CCOCC1)N(C)C(c1ccccc1)=N2 (configuration not stated) | inactive: -9.8%
O=P1(Nc2ccc(Br)cn2)COc2ccccc2OC1 | inactive: -0.7%
O=P1(Nc2ncccn2)COc2ccccc2OC1 | inactive: -5.4%
O=C(COc1ccccc1)OC1CN2CCC1CC2 (configuration not stated) | inactive: 2.1%
COP1(=S)c2c(C)nn(CCC#N)c2N=C(c2ccc(F)cc2)N1C (configuration not stated) | inactive: 6.5%
O=C(OC1CN2CCC1CC2)C12CC3CC(CC(C3)C1)C2 (configuration not stated) | inactive: 3%
